Assay results: publication PMC3951999 (Cancer cell, 2011)

What was measured:
[1] = test system: BCR-ABL^T315I Ba/F3 cells
CRAF = CRAF (Mus musculus, UniProt Q99N57); assay: Endogenous CRAF kinase activity in BCR-ABL Ba/F3 cells

Structure (SMILES): Cc1nc(Nc2ncc(C(=O)Nc3c(C)cccc3Cl)s2)cc(N2CCN(CCO)CC2)n1 [dasatinib]
- BCR-ABL and CRKL phosphorylation [1]: did not inhibit BCR-ABL or CRKL phosphorylation
- CRAF (S338) phosphorylation, MEK and ERK activity/phosphorylation [1]: induced CRAF phosphorylation on S338 (Fig 3C) and activated CRAF (Fig 3D), MEK and ERK
- CRAF activity (CRAF): blocked CRAF activity
